Source: ChEMBL document CHEMBL1137611, “Toward potent ghrelin receptor ligands based on trisubstituted 1,2,4-triazole structure. 2. Synthesis and pharmacological in vitro and in vivo evaluations” (J Med Chem, 2007)

Chains of the proteins cited; added tags and fusions are not shown.
UniProt Q92847, whole entry: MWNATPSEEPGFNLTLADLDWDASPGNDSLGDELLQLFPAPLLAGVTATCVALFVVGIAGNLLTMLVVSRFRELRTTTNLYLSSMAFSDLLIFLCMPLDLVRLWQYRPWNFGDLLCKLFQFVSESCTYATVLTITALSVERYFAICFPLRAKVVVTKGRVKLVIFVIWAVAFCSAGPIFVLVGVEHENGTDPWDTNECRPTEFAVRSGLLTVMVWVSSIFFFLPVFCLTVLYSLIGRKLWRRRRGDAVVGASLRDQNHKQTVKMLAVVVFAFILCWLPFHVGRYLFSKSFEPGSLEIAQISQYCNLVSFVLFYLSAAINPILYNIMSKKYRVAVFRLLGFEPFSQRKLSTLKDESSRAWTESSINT

Assays:
[1] = biological target: T1, Growth hormone secretagogue receptor type 1 (Homo sapiens, UniProt Q92847); assay: Antagonist activity at human GHS1a receptor expressed in CHO cells assessed as accumulation of intracellular calcium level; assay type: functional, cell-based
[2] = biological target: T1, Growth hormone secretagogue receptor type 1; assay: Displacement of [125I]His9-ghrelin from human cloned GHS1a receptor expressed in LLC PK1 cells; assay type: cell-based
How it was run: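 Membranes from LLC PK-1 cells transiently electroporated with hGHS-R1a, harvested ~48 h post-transfection (10 μg protein), incubated 60 min at 25 °C in Tris pH 7.3/MgCl2/EDTA/bacitracin buffer with 60 pM 125I-His9-ghrelin and increasing competitor concentrations. Nonspecific binding defined with 1 μM ghrelin. Bound and free separated on PEI-soaked GF/C filters; gamma counting.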

Row | Structure (SMILES) | Kb [1] [nM] | IC50 [2] [nM]
1 | COc1ccc(Cn2c(CCc3ccccc3)nnc2[C@@H](Cc2c[nH]c3ccccc23)NC(=O)C2CCCCN2)cc1 (single isomer, unassigned) | 53 | 23
2 | COc1ccc(Cn2c(CCc3ccccc3)nnc2[C@@H](Cc2c[nH]c3ccccc23)NC(=O)[C@H]2CCCCN2)cc1 | 27 | 11
3 | COc1ccc(Cn2c(CCc3ccccc3)nnc2[C@@H](Cc2c[nH]c3ccccc23)NC(=O)CN)cc1 | 19 | 32
